Literature values in US9511027B1, “Calcium supplement having enhanced absorption” (Delavau L.L.C., priority 2006, dated 2016).

Conditions: adult men and postmenopausal women; Heaney et al. 1999

Substance: calcium carbonate [reference compound]
- absorption efficiency: about 34.2%±10.1
